Test results: PubChem BioAssay (NCI)
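A five-concentration, 48-hour dose response in 96-well plates underlies each endpoint, interpolated linearly between surrounding concentrations. TGI: total growth inhibition.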

Columns and labels:
Test in all cases: inhibition of tumour cell growth, NCI panel, 48 h
MDA-MB-435 = system: MDA-MB-435
SF-295 CNS = system: SF-295 CNS
CCRF-CEM leukemia = system: CCRF-CEM leukemia
HT29 colon = system: HT29 colon
MCF7 breast = system: MCF7 breast
A549 NSCLC = system: A549 NSCLC
786-0 renal = system: 786-0 renal
T-47D breast = system: T-47D breast
NCI-H322M lung = system: NCI-H322M lung
OVCAR-8 ovarian = system: OVCAR-8 ovarian
SR leukemia = system: SR leukemia
NCI-H226 lung = system: NCI-H226 lung
HS 578T breast = system: HS 578T breast
UO-31 renal = system: UO-31 renal
NCI/ADR-RES ovarian = system: NCI/ADR-RES ovarian
SW-620 colon = system: SW-620 colon
MOLT-4 leukemia = system: MOLT-4 leukemia
MDA-N = system: MDA-N
SNB-75 CNS = system: SNB-75 CNS
EKVX NSCLC = system: EKVX NSCLC
HCC-2998 colon = system: HCC-2998 colon
M14 melanoma = system: M14 melanoma
OVCAR-4 ovarian = system: OVCAR-4 ovarian
SF-539 CNS = system: SF-539 CNS
HL-60(TB) leukemia = system: HL-60(TB) leukemia
SK-MEL-5 melanoma = system: SK-MEL-5 melanoma
OVCAR-5 ovarian = system: OVCAR-5 ovarian
UACC-257 melanoma = system: UACC-257 melanoma
BT-549 breast = system: BT-549 breast
HCT-116 colon = system: HCT-116 colon
OVCAR-3 ovarian = system: OVCAR-3 ovarian
HOP-92 NSCLC = system: HOP-92 NSCLC
SF-268 CNS = system: SF-268 CNS
KM12 colon = system: KM12 colon
K-562 leukemia = system: K-562 leukemia
SN12C renal = system: SN12C renal
SK-MEL-28 melanoma = system: SK-MEL-28 melanoma
U251 CNS = system: U251 CNS
MALME-3M melanoma = system: MALME-3M melanoma
TK-10 renal = system: TK-10 renal
NCI-H460 lung = system: NCI-H460 lung
HCT-15 colon = system: HCT-15 colon
LOX IMVI melanoma = system: LOX IMVI melanoma
COLO 205 colon = system: COLO 205 colon
SNB-19 CNS = system: SNB-19 CNS
UACC-62 melanoma = system: UACC-62 melanoma
DU-145 prostate = system: DU-145 prostate
A498 renal = system: A498 renal
IGROV1 ovarian = system: IGROV1 ovarian
SK-OV-3 ovarian = system: SK-OV-3 ovarian
MDA-MB-231 breast = system: MDA-MB-231 breast
PC-3 prostate = system: PC-3 prostate
ACHN renal = system: ACHN renal
CAKI-1 renal = system: CAKI-1 renal
RXF 393 renal = system: RXF 393 renal
RPMI-8226 leukemia = system: RPMI-8226 leukemia
SK-MEL-2 melanoma = system: SK-MEL-2 melanoma
NCI-H522 lung = system: NCI-H522 lung
NCI-H23 lung = system: NCI-H23 lung
HOP-62 NSCLC = system: HOP-62 NSCLC

CC(=O)n1c(=O)n(C2CCN(CCCC(=O)c3ccc(F)cc3)CC2)c2ccccc21
TGI (MDA-MB-435): 88.7 µM | TGI (SF-295 CNS): > 100 µM | TGI (CCRF-CEM leukemia): 75.9 µM | TGI (HT29 colon): 64.2 µM | TGI (MCF7 breast): 80.8 µM | TGI (A549 NSCLC): > 100 µM | TGI (786-0 renal): 91.5 µM | TGI (T-47D breast): 86.9 µM | TGI (NCI-H322M lung): > 100 µM | TGI (OVCAR-8 ovarian): > 100 µM | TGI (SR leukemia): 38.8 µM | TGI (NCI-H226 lung): 93.7 µM | TGI (HS 578T breast): > 100 µM | TGI (UO-31 renal): 94.6 µM | TGI (NCI/ADR-RES ovarian): > 100 µM | TGI (SW-620 colon): > 100 µM | TGI (MOLT-4 leukemia): 44.2 µM | TGI (MDA-N): > 100 µM | TGI (SNB-75 CNS): > 100 µM | TGI (EKVX NSCLC): > 100 µM | TGI (HCC-2998 colon): 83.4 µM | TGI (M14 melanoma): 42.9 µM | TGI (OVCAR-4 ovarian): > 100 µM | TGI (SF-539 CNS): 59.4 µM | TGI (HL-60(TB) leukemia): 31.8 µM | TGI (SK-MEL-5 melanoma): 29.2 µM | TGI (OVCAR-5 ovarian): > 100 µM | TGI (UACC-257 melanoma): 45.7 µM | TGI (BT-549 breast): > 100 µM | TGI (HCT-116 colon): > 100 µM | TGI (OVCAR-3 ovarian): 98.1 µM | TGI (HOP-92 NSCLC): > 100 µM | TGI (SF-268 CNS): > 100 µM | TGI (KM12 colon): > 100 µM | TGI (K-562 leukemia): 53.7 µM | TGI (SN12C renal): > 100 µM | TGI (SK-MEL-28 melanoma): 70.3 µM | TGI (U251 CNS): > 100 µM | TGI (MALME-3M melanoma): 43.3 µM | TGI (TK-10 renal): > 100 µM | TGI (NCI-H460 lung): > 100 µM | TGI (HCT-15 colon): > 100 µM | TGI (LOX IMVI melanoma): 60.1 µM | TGI (COLO 205 colon): 35 µM | TGI (SNB-19 CNS): > 100 µM | TGI (UACC-62 melanoma): 87.3 µM | TGI (DU-145 prostate): > 100 µM | TGI (A498 renal): > 100 µM | TGI (IGROV1 ovarian): > 100 µM | TGI (SK-OV-3 ovarian): > 100 µM | TGI (MDA-MB-231 breast): > 100 µM | TGI (PC-3 prostate): > 100 µM | TGI (ACHN renal): > 100 µM | TGI (CAKI-1 renal): > 100 µM | TGI (RXF 393 renal): > 100 µM | TGI (RPMI-8226 leukemia): 53.1 µM | TGI (SK-MEL-2 melanoma): 95.7 µM | TGI (NCI-H522 lung): > 100 µM | TGI (NCI-H23 lung): > 100 µM | TGI (HOP-62 NSCLC): 87.2 µM
